## AlphaSeq binding of Ab-14 light chain variants to a spike HR2 peptide

The target is the same throughout: PDVDLGDISGINAS, from the HR2 region of SARS-CoV-2 spike.

Each scFv is VH, a 15-residue (Gly4Ser)3 linker, VL, as in the parent Ab-14, and differs from it in the CDRs of the light chain only.
VH: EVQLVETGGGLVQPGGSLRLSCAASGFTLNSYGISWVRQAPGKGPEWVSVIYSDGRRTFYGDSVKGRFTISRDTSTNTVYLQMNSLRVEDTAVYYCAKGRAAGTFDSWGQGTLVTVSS
VL: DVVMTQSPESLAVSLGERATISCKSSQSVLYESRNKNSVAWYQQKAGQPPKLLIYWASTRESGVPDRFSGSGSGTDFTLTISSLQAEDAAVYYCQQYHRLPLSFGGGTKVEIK

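The parent was found by panning a naive human phage display library on the peptide. In library AAYL50, one, two or three CDR residues were substituted; doubles and triples were drawn at random. Affinity was read by AlphaSeq, a pooled yeast mating assay with surface-displayed partners. The frequency of each diploid, read from paired DNA barcodes, reflects how well the two displayed proteins bind. Scores were corrected for input abundance and mapped to Kd with protein pairs of known affinity run in the same pool. Each pool was mated in three replicate cultures.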

Substitutions are numbered in sequence along the VL above, starting at 1 (not Kabat). Numbers give log10(Kd / nM), so 0 is 1 nM and 3 is 1 µM. Smaller is tighter. Averages over replicates are reported, and they cover detected replicates only. An entry "n.d." has no value in the source: the pair was not observed among the diploids in that replicate. This suggests poor binding but is not conclusive.

changes	log10 Kd (nM) by replicate	mean, log10 nM	signal with controls
S28L+E61M+S103I	1.84 2.70 1.77	2.10	0 of 9
S26M+Q27I+Y97P	2.01 2.99 1.79	2.26	1 of 9 (2.86)
Q27L+S33W+Q96K	n.d. 2.68 n.d.	2.68	0 of 9
V39Y+W56R+Q95A	3.36 1.74 1.98	2.36	0 of 9
S58I+Q95I+Q96S	4.56 4.12 n.d.	4.34	7 of 9 (5.09)
S26R+H98Y+L102D	1.38 1.42 1.73	1.51	0 of 9
Q27D+T59L+L102V	n.d. 4.44 n.d.	4.44	2 of 9 (3.69)
E32P+S38W	2.51 n.d. n.d.	2.51	0 of 9
S25W+S38R	2.54 2.62 2.94	2.70	4 of 9 (4.21)
E32H+K36S+H98R	1.60 1.49 1.57	1.55	2 of 9 (3.73)
R34D+W56L+Q96V	n.d. n.d. n.d.	n.d.	0 of 9
S33H+W56V+P101R	n.d. n.d. n.d.	n.d.	2 of 9 (4.11)
E32V+P101N	2.37 2.21 2.48	2.36	2 of 9 (4.19)
S26D+S103W	2.57 2.40 2.52	2.50	0 of 9
V29L+Q96N+L100F	n.d. n.d. n.d.	n.d.	2 of 9 (3.87)
S38D+Q95K	3.61 3.67 2.16	3.15	0 of 9
K24A+S26E+L100M	0.86 0.91 0.92	0.90	3 of 9 (4.26)
R34A+E61W+L100N	1.49 1.59 1.80	1.63	4 of 9 (3.93)
N35E+S62N+R99M	3.03 3.19 2.71	2.98	3 of 9 (4.19)
Y31I+R99A+P101D	0.54 0.89 0.58	0.67	0 of 9
Q95V+L100H	n.d. n.d. n.d.	n.d.	1 of 9 (3.57)
V29I+S62M+L100G	n.d. n.d. n.d.	n.d.	1 of 9 (4.49)
W56I+S62V+L102Q	n.d. n.d. n.d.	n.d.	1 of 9 (4.13)
V39M+W56I+L102F	n.d. n.d. n.d.	n.d.	0 of 9
S25E+S58N	0.98 1.13 1.47	1.20	0 of 9
L30F+Y97E	1.20 1.44 1.36	1.33	2 of 9 (3.87)
E32M+L100C+S103Y	n.d. 2.24 n.d.	2.24	1 of 9 (3.99)
S26I+Q96L	n.d. n.d. n.d.	n.d.	1 of 9 (1.73)
S26G+S38P+P101S	2.16 1.85 2.06	2.02	2 of 9 (5.26)
S25P+A57D+L102W	n.d. n.d. 3.94	3.94	1 of 9 (3.73)
S26P+E61W+Q96E	5.82 n.d. n.d.	5.82	2 of 9 (3.95)
W56Y+E61F	1.16 1.10 1.15	1.14	1 of 9 (2.65)
W56V+S62G+Q95H	n.d. 3.40 5.72	4.56	2 of 9 (4.20)
E32K+S33M+R99L	2.20 n.d. 2.14	2.17	0 of 9
N37F+S38E+A40V	n.d. n.d. n.d.	n.d.	0 of 9
S28V+S38G+W56P	n.d. 3.58 n.d.	3.58	1 of 9 (3.08)
N37Y+A40C+H98T	3.51 n.d. n.d.	3.51	0 of 9
A57S+Y97I+L102P	n.d. n.d. n.d.	n.d.	0 of 9
S26K+N37V+A40E	n.d. n.d. n.d.	n.d.	2 of 9 (3.58)
S25F+N37K+S58H	0.82 1.07 0.76	0.88	0 of 9
S28E+E32K+T59F	2.05 1.84 2.16	2.02	3 of 9 (5.31)
K24F+L30W+Y97I	3.41 2.36 2.74	2.84	6 of 9 (4.13)
S25K+Q96K	0.76 1.05 1.23	1.01	0 of 9
S28Q+V29I+A57I	3.66 3.57 4.86	4.03	2 of 9 (4.10)
S38R+E61V+H98S	2.13 2.55 1.96	2.21	1 of 9 (3.39)
A40T+S62W+Q95L	n.d. 4.83 n.d.	4.83	1 of 9 (3.27)
K36I+R99M+L102A	n.d. n.d. n.d.	n.d.	0 of 9
N37T+V39S+A57Q	4.57 3.25 5.48	4.43	2 of 9 (4.07)
V29R+N35W+K36M	1.10 1.55 0.90	1.19	1 of 9 (1.99)

6 of these entries, quoted again:

changes	log10 Kd (nM) by replicate	mean, log10 nM	signal with controls
S28L+E61M+S103I	1.84 2.70 1.77	2.10	0 of 9
S26K+N37V+A40E	n.d. n.d. n.d.	n.d.	2 of 9 (3.58)
S25K+Q96K	0.76 1.05 1.23	1.01	0 of 9
V39M+W56I+L102F	n.d. n.d. n.d.	n.d.	0 of 9
S33H+W56V+P101R	n.d. n.d. n.d.	n.d.	2 of 9 (4.11)
N37T+V39S+A57Q	4.57 3.25 5.48	4.43	2 of 9 (4.07)

Nonspecific signal, from three strains lacking the peptide, appeared in 18% of pairings of library AAYL50, centred on 4.19 (5% of these signals below 2.99); values are not corrected for it. Also given: how often the same scFv was detected with the empty control strains, with their mean in brackets.

Source: Engelhart et al. 2022 (doi:10.1038/s41597-022-01779-4), MIT Lincoln Laboratory and A-Alpha Bio; data file from the FLAb repository.